Values of other authors as cited in PMC7221482 (Neurochemistry international, 2019).

Details: after acute treatment with 10 mg/kg (±)-citalopram, ref Karlsson et al., 2013; cited from earlier work

R-(−)-citalopram
mouse brain concentration: 0.5 µM
